As usually defined, the Kd is a measure of binding affinity in units of concentration. High values mean weaker binding, low ones tighter binding. One may read the stoichiometry N as the number of molecules, sites or subunits per partner or assembly.

Where only a bound is given, the exact number is not on record here.

The first assay deals with FEM1B-EB-EC ternary complex (human) (UniProt Q9UK73). Nature of the assay: ITC; peptides (0.5-1 mM) titrated into 50 μM protein in the cell, 25 °C; 20 mM Tris, 200 mM NaCl, pH 7.5, 1 mM EDTA; one-site binding model. Background: Isothermal titration calorimetry measures the heat released or taken up as one component is titrated into another.
Consider “CCDC89 C-degron (C-term 23-mer), SUMO fusion (peptide)”, for which the equilibrium dissociation constant (Kd) was determined as 2.2 µM. The substance “CCDC89 C-degron P-1R, SUMO fusion (peptide)” registered a Kd of 1.9 µM. “CCDC89 C-degron variant with deletion of seven residues in the linker region (peptide)” registered a Kd of 8 µM. On the same count and under the same terms, for “CUX1 C-degron L-3A, SUMO fusion (peptide)” the value was 8.5 µM.

“CUX1 C-degron W-2A, SUMO fusion (peptide)” yielded a Kd of 5.2 µM. For “PSMB5 C-degron P-1A, SUMO fusion (peptide)”, the fold reduction of binding against the WT PSMB5 C-degron amounted to 4.8 fold.

In turn, “the P-1A, P-1Q, and P-1L substitutions (CCDC89 C-degron)” returned a Kd of 6.7 to 46 µM. As to “the five C-degrons (CCDC89, PSMB5, BEX2, CUX1 and MCRIP1)”, the Kd lay within 1.4 to 6.8 µM.

The target of another assay is FEM1B-EB-EC complex with the FEM1B F549D/V584D/I587D/L588D mutant (human) (UniProt Q9UK73). Described as above.
Substance “CCDC89 C-degron (C-term 23-mer), SUMO fusion (peptide)” had a Kd of 2.6 µM.

Another assay addresses FEM1B-EB-EC complex with the FEM1B D356A/V391A/Q394A/F501A/H502A mutant (human) (UniProt Q9UK73). Described as above.
Regarding “CCDC89 C-degron (C-term 23-mer), SUMO fusion (peptide)”, the Kd is > 50 µM. In turn, “both C-degrons (CDK5R1, 23 aa and 10 aa)” yielded a Kd of 7.8 to 8.8 µM.

The next assay has as its target FEM1B-EB-EC ternary complex with FEM1B F549D/V584D/I587D/L588D (human) (UniProt Q9UK73). The assay can be described thus: ITC; SUMO fusion peptides (0.5-1 mM) titrated into 50 μM FEM1B-EB-EC in the cell, 25 °C, 20 mM Tris, 200 mM NaCl, pH 7.5, 1 mM EDTA; one-site binding model.
Regarding “SUMO-(GGGS)2-CCDC89 352-374 WT (peptide)”, the stoichiometry N is 0.66.

The target in a further assay is FEM1B-elongin B-elongin C ternary complex, wild type (human) (UniProt Q9UK73). The assay is described as above.
“SUMO-(GGGS)2-CCDC89 352-374 (H-21A) (peptide)” came in with a stoichiometry N of 1. Same read-out and setting: the same measure for “SUMO-(GGGS)2-CCDC89 352-374 (H-21L) (peptide)”: 1. As for “SUMO-(GGGS)2-CCDC89 352-374 (P-1A) (peptide)”, the Kd is > 46 µM and the stoichiometry N amounted to 0.6. Substance “SUMO-(GGGS)2-CCDC89 352-374 (P-1L) (peptide)” yielded a Kd of 6.7 µM and a stoichiometry N of 0.43. In the case of “SUMO-(GGGS)2-CCDC89 352-374 (P-1Q) (peptide)”, the Kd turned out to be 6.7 µM and the stoichiometry N is 0.64. “SUMO-(GGGS)2-CCDC89 352-374 (P-1R) (peptide)” displayed a stoichiometry N of 0.57. Same read-out and setting: the same measure for “SUMO-(GGGS)2-CCDC89 352-374 WT (peptide)”: 0.58. As to “SUMO-(GGGS)2-CCDC89 352-374 Δ3 (peptide)”, the Kd came out at 1.1 µM and the stoichiometry N turned out to be 0.37. With “SUMO-(GGGS)2-CCDC89 352-374 Δ5 (peptide)”, the Kd was 2.1 µM and the stoichiometry N turned out to be 0.42. With “SUMO-(GGGS)2-CCDC89 352-374 Δ7 (peptide)”, the stoichiometry N is 0.76. “SUMO-(GGGS)2-CCDC89 352-374 Δ9 (peptide)” registered a stoichiometry N of 0.6. In turn, “SUMO-(GGGS)2-CUX1 656-678 (F-22A) (peptide)” gave a stoichiometry N of 0.72. As for “SUMO-(GGGS)2-CUX1 656-678 (L-3A) (peptide)”, the stoichiometry N amounted to 0.22. “SUMO-(GGGS)2-CUX1 656-678 (Q-1A) (peptide)” had a Kd of 2.6 µM and a stoichiometry N of 0.4.

For “SUMO-(GGGS)2-CUX1 656-678 (W-2A) (peptide)”, the stoichiometry N was 0.42. As to “SUMO-(GGGS)2-PSMB5 241-263 (P-1A) (peptide)”, the Kd was 10.6 µM and the stoichiometry N turned out to be 0.5.

The target of another assay is FEM1B-EB-EC ternary complex with FEM1B D356A/V391A/Q394A/F501A/H502A (human) (UniProt Q9UK73). The assay is described as above.
As to “SUMO-(GGGS)2-CCDC89 352-374 WT (peptide)”, the stoichiometry N was found to be 0.63.

(Values after article PMC11053023, “Mechanism of Ψ-Pro/C-degron recognition by the CRL2^FEM1B ubiquitin ligase” (Nature Communications, 2024).)
